Results published in ChEMBL document CHEMBL4823256, “Prodrugs of a 1'-CN-4-Aza-7,9-dideazaadenosine C-Nucleoside Leading to the Discovery of Remdesivir (GS-5734) as a Potent Inhibitor of Respiratory Syncytial Virus with Efficacy in the African Green Monkey Model of RSV” (J Med Chem, 2021).

Test: in vivo
Settings: cynomolgus monkey, iv, 20 mg/kg

N#C[C@@]1(c2ccc3c(N)ncnn23)O[C@H](CO)[C@@H](O)[C@H]1O [GS-441524] gave a Vd at 0.5 h of 1.03 L/kg.
